Experimental data: patent US6057371A, “Sigma receptor ligands and the use thereof” (Virginia Commonwealth University, priority 1992, dated 2000)

The chains behind the UniProt entries cited, without tags or fusion partners.
UniProt P19327, whole entry: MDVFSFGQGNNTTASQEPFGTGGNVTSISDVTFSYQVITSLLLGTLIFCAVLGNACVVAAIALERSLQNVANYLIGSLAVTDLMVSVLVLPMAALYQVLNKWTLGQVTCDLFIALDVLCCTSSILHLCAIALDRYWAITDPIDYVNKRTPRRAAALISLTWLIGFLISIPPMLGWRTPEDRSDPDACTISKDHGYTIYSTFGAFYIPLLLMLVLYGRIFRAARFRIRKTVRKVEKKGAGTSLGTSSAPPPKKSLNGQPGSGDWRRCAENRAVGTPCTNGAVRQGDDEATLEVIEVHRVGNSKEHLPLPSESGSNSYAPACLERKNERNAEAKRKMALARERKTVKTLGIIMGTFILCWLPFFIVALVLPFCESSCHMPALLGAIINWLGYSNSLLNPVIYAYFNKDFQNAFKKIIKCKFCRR

How the values were obtained:
5-HT1A receptor = 5-HT1A receptor (Rattus norvegicus, UniProt P19327); type: binding; design: 47: 529-540 (1986); from tissue; host or cells: brain tissue, inferred from the cited method (rat frontal cortex); conditions: Table 5
Description: Further sigma receptor binding assays against [^3 H]DTG and 5HT-1A binding assays were conducted according to the procedure outlined in the previous examples.

sigma receptor = assay: Sigma receptor binding, [^3 H]DTG, brain membranes (both sigma-1 and sigma-2 sites); design: species or system guinea pig; conditions: Table 6
Description: Sigma receptor binding assays using guinea pig brain membrane homogenates and the radioligand [^3 H]DTG were conducted as described by Weber et al.. […] Briefly, frozen whole guinea-pig brains (Biotrol, Indianapolis, Ind.) were homogenized in 10 volumes (w/v) of ice-cold 320 mM sucrose using a Brinkman polytron. The homogenate was centrifuged at 1,000× g for 20 minutes at 4° C. The supernatant was centrifuged at 20,000× g for 20 minutes at 4° C. The resulting pellet was resuspended in 10 initial volumes of 50 mM Tris/HCl buffer at pH 7.4 and centrifuged at 20,000× g for 20 minutes at 4° C. The resulting pellet was resuspended in 5 initial volumes ice-cold 50 mM Tris/Hcl […], and the final volume was adjusted to yield a protein concentration of 3 mg/ml. […]
The protein concentration in the 1-ml final incubation volume was 800 ug/ml, corresponding to 32 mg of brain tissue (original wet weight) and to a tissue concentration within the linear range for specific binding. […] Each filter was suspended in 10 ml Cytoscint (ICI), and radioactivity was measured by liquid scintillation spectrometry at a counting efficiency of approximately 50%. IC50 values were determined by non-linear regression analyis. […]
Radioligand Binding. […] Radioactivity was measured by liquid scintillation spectrometry at a counting efficiency of 50%.

## CN[C@H](C)Cc1ccccc1 [Compound 3]
5-HT1A receptor
  Ratio 5-HT1A /σ: .20

## CCN(CC)CCOC(=O)C(O)(c1ccccc1)c1ccccc1 [Compound 185]
Sigma receptor
  IC50: 1740 nM
